According to patent US20110275102A1 (Novartis, published 2011):

Biological target: T1, full-length human RACα produced in the baculovirus system (Sf9 cells) (human, UniProt P31749 1-480)
T1 construct: also called full-length RAC-PK molecule; baculovirus produced human RACα
T1 sequence: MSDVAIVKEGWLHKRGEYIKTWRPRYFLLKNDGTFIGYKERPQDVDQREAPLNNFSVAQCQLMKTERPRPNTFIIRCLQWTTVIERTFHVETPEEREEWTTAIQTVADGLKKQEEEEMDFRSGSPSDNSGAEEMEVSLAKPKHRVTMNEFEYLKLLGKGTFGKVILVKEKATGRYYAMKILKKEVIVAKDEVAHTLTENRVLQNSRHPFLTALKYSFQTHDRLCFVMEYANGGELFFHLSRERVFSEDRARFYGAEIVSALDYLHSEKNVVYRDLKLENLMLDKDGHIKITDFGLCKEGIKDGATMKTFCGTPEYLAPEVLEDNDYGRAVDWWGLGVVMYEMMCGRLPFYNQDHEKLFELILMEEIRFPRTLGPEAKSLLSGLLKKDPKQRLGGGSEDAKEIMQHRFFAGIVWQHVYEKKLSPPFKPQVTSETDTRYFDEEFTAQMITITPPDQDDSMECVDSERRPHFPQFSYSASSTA
Experiment: in vitro binding to GST fusions on glutathione-agarose beads, Western blot with RACα antiserum

B1: GST (from pGEX-2T) (other, UniProt P08515 1-218, looked up)
chain: MSPILGYWKIKGLVQPTRLLLEYLEEKYEEHLYERDEGDKWRNKKFELGLEFPNLPYYIDGDVKLTQSMAIIRYIADKHNMLGGCPKERAEISMLEGAVLDIRYGVSRIAYSKDFETLKVDFLSKLPEMLKMFEDRLCHKTYLNGDHVTHPDFMLYDALDVVLYMDPMCLDAFPKLVCFKKRIEAIPQIDKYLKSSKYIAWPLQGWQATFGGGDHPPK
notes: Control protein; also called GST alone
  binding result: no binding (tested: 2.5 µg of each in 100 µL)
